# The entries are a selection whose mix differs from that of the whole data set. Calls of active or inactive are those of the source.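 The calls were made as follows: active = inhibition above its plate's cutoff, the mean inhibition of sample wells plus 3 SD (cut at about 27% in these data); inactive = the rest.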
# By UniProt entry, the sequences of proteins in these tests, tags left out.
# UniProt P08173, whole entry, looked up: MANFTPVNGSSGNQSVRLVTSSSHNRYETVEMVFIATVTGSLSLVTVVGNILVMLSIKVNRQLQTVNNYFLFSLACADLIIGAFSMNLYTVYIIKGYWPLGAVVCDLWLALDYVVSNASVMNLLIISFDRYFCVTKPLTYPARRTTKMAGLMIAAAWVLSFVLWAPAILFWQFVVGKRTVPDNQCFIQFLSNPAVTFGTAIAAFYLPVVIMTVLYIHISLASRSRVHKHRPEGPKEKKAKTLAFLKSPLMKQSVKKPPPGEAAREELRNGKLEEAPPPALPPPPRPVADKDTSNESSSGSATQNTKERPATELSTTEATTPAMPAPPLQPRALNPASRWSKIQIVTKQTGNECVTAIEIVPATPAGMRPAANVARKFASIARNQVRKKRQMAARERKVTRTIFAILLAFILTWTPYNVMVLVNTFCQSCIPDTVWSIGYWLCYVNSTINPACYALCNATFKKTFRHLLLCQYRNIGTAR
# Target: Muscarinic acetylcholine receptor M4 (Homo sapiens) (UniProt P08173)
# Assay: CHRM4 blockers of acetylcholine calcium response – CHO cells, Fluo-8 calcium fluorescence, primary screen (AID 624125);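 also: 0% = acetylcholine EC80 with DMSO and 100% = DMSO without agonist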
# Details: CHO-hM4 cells, ACh EC80, Fluo-8 calcium fluorescence; at 3 µM; stronger effect = higher value
row,SMILES,inhibition
1,CC(C)(C)C(=O)NC(Sc1ccccc1)C(Cl)(Cl)Cl (configuration not stated),inactive: 1.48%
2,N#C/C(=C\c1ccc(N(CCBr)CCBr)cc1)C(N)=O,inactive: 2.79%
3,CC(=O)c1ccc(N2CC2c2ccncc2)cc1 (configuration not stated),inactive: -4.25%
4,CC1C(=O)OC2CCN3CC=C(COC(=O)C(C)(O)C1(C)O)C23 (configuration not stated),inactive: -14.9%
5,COC(=O)C1(C)COP(=O)(NCc2ccccc2)OC1 (configuration not stated),inactive: -8.95%
6,CCN(CC)CCOC(=O)C(O)(c1ccccc1)c1ccccc1,active: 98.8%
7,Cc1ccccc1CN(C)C(=O)COC(=O)C(O)(c1ccccc1)c1ccccc1,inactive: -4.1%
8,C[C@@H]1C=CCP(=O)(Oc2ccccc2)O1 (some centres not stated),inactive: -2.44%
9,C[C@H]1OP(=O)(Oc2ccccc2)C[C@@H]2O[C@@H]21 (some centres not stated),inactive: 2.65%
10,CC(=O)Nc1ccc([As](=O)(O)O)c(O)c1,inactive: 6.89%
11,CC(=O)Nc1ccc(Oc2c([N+](=O)[O-])cc([N+](=O)[O-])cc2[N+](=O)[O-])cc1,inactive: -0.34%
12,O=C(NC1CCS(=O)(=O)C1)NP(=S)(Oc1ccccc1)Oc1ccccc1 (configuration not stated),inactive: -2.3%
13,CCNC(=S)/N=C(\N)N[N+](=O)[O-],inactive: -3.76%
14,c1ccc(-c2nn[nH]n2)c(-c2nn[nH]n2)c1,inactive: -1.92%
15,Cc1ccc(NP(=O)(Oc2cccc(C)c2)Oc2cccc(C)c2)nc1,inactive: 3.28%
16,C=C1C(=O)OC2CCN3CC=C(COC(=O)C(C)(O)C4(CO4)C1C)C23 (configuration not stated),inactive: 0.45%
17,O=P1(N(CCCl)CCCl)OCCC2CCCCN21 (configuration not stated),inactive: -8.35%
18,CC1C(=O)OC2CCN3CC4OC4(COC(=O)C(C)(O)C1(C)O)C23 (configuration not stated),inactive: -5.2%
19,COC(=O)c1cc2c(s1)N=C(c1ccccc1)N(C)P2(=O)N1CCOCC1 (configuration not stated),inactive: 6.95%
20,CC(=O)NC(SC(=S)N(CC(C)C)CC(C)C)C(Cl)(Cl)Cl (configuration not stated),inactive: -4.5%
21,Cc1ccc(OP(=O)(Nc2ccccn2)Oc2ccc(C)cc2)cc1,inactive: -1.35%
22,Clc1ccc(N2CCN(Cc3c[nH]c4ncccc34)CC2)cc1,inactive: -20.9%
23,CCC(=O)N1C2C3N(C(=O)CC)C1C1N(C(=O)CC)C(C(N1C(=O)CC)N3C(=O)CC)N2C(=O)CC,inactive: 1.93%
24,CCN(C(=O)COC(=O)C(O)(c1ccccc1)c1ccccc1)c1c(N)n(Cc2ccccc2)c(=O)[nH]c1=O,inactive: -4.26%

row,SMILES,inhibition
1,Cc1ccccc1OP(=O)(Nc1ccccn1)Oc1ccccc1C,inactive: -2.46%
2,CC(NC(=O)COC(=O)C(O)(c1ccccc1)c1ccccc1)c1ccccc1 (configuration not stated),inactive: -10.6%
3,CN(C)C(=O)Oc1noc2ccccc12,inactive: -1.22%
4,O=c1c2cc([N+](=O)[O-])ccc2[nH]c2c([N+](=O)[O-])cc([N+](=O)[O-])cc12,inactive: 0.27%
5,CS(=O)(=O)c1cc([N+](=O)[O-])c2no[n+]([O-])c2c1,inactive: 5.08%
6,CCOP1(=S)c2c(C)nn(CCC#N)c2N=C(c2ccccc2F)N1C (configuration not stated),inactive: 14.1%
7,O=P(Nc1nccs1)(c1ccccc1)c1nc2ccccc2s1 (configuration not stated),inactive: -0.36%
8,O=P(Nc1nccs1)(Oc1ccccc1)Oc1ccccc1,inactive: -9.83%
9,O=C(O)COc1ccc([As](=O)(O)O)cc1[N+](=O)[O-],inactive: 0.08%
10,Nc1ccccc1[As](=O)(O)c1ccccc1,inactive: -10.3%
11,NC(=O)Nc1ccc([As](=O)(O)O)cc1,inactive: 5.79%
12,CN(C)C(=O)c1cc([N+](=O)[O-])cc2c1-c1c(cc([N+](=O)[O-])cc1[N+](=O)[O-])C2=O,inactive: 15.8%
13,O=[N+]([O-])c1ccc2c(c1)nnn2O,inactive: 3.85%
14,CN(C(=O)Cc1ccc(Cl)c(Cl)c1)[C@H]1CC[C@@]2(CCCO2)C[C@@H]1N1CCCC1,inactive: 0.4%
15,N#CCCN(C(=O)COC(=O)C(O)(c1ccccc1)c1ccccc1)c1ccc(F)cc1,inactive: -1.42%
16,CCOP1(=S)c2c(C)nn(CCC#N)c2N=C(c2ccc(F)cc2)N1C (configuration not stated),inactive: 7.84%
17,CN(C(=O)Cc1ccccc1)[C@@H]1CC[C@]2(CCCO2)C[C@H]1N1CCCC1,inactive: -3.46%
18,O=[As](O)(O)c1cccnc1,inactive: 0.08%
19,CS(=O)(=O)c1ccc(Cl)c(NC(=O)COC(=O)C(O)(c2ccccc2)c2ccccc2)c1,inactive: 1.99%
20,O=C(OC1CN2CCC1CC2)c1ccc(Cl)cc1 (configuration not stated),inactive: 18.2%
21,O=[As](O)(c1cccc(O)c1)c1cccc(O)c1,inactive: 4.44%
22,Cc1cccc(OCC(=O)OC2CN3CCC2CC3)c1 (configuration not stated),inactive: 5.19%
23,CCCOP(=S)(Nc1nc(N)cc(=O)[nH]1)OCCC,inactive: 4.58%
24,C[C@H]1C(=O)O[C@@H]2CCN3CC=C(COC(=O)[C@](C)(O)[C@]1(C)O)[C@H]23,inactive: -4.13%

row,SMILES,inhibition
1,Cc1ccc(NCCc2c([N+](=O)[O-])cc([N+](=O)[O-])cc2[N+](=O)[O-])cc1,inactive: -8.45%
2,Nc1cccc2c([As](=O)(O)O)cccc12,inactive: 1.19%
3,COc1cc(C2NCCC3(OCCO3)C2(C)C)cc(OC)c1OC (configuration not stated),inactive: -29.7%
4,CCOP(=O)(Nc1cccc2ccccc12)OCC,inactive: 4.42%
5,CN(CCCl)Cc1cc(Cl)c(NC2=NCCN2)c(Cl)c1,inactive: -9.46%
6,CCOP(=O)(Nc1ccc(C)cn1)OCC,inactive: 6.38%
7,CCC1=CC2Cc3nc4ccc(Cl)cc4c(N)c3C(C1)C2 (configuration not stated),inactive: 21.6%
8,O=P1(Nc2ccccn2)COc2ccccc2OC1,inactive: -4%
9,CCOP(=O)(NC(=NC(C)c1ccccc1)NC(C)c1ccccc1)OCC (configuration not stated),inactive: 5.61%
10,Clc1n[nH]nc1-c1nn[nH][15n]1,inactive: 2.22%
11,O=P1(N(CCCl)CCCl)NCCC(C(F)(F)F)O1 (configuration not stated),inactive: 2.35%
12,CC(C)(C)C(=O)NC(Sc1ncccn1)C(Cl)(Cl)Cl (configuration not stated),inactive: 19.8%
13,COc1ccccc1CNC(=O)COC(=O)C(O)(c1ccccc1)c1ccccc1,inactive: -1.85%
14,CC1(CBr)Cn2c(nc3ccccc3c2=O)S1 (configuration not stated),inactive: 8.93%
15,CN(C(=O)Cc1ccc(Cl)c(Cl)c1)[C@@H]1CCCC[C@H]1N1CCCC1,inactive: 0.24%
16,CC(C)/C=N\N=C(\N)N[N+](=O)[O-],inactive: -18.7%
17,Cc1nn(-c2ccccc2)c2c1P(=O)(N1CCOCC1)N(C)C(c1ccccc1)=N2 (configuration not stated),inactive: -12.8%
18,Cc1ccc(C(=O)OC2CN3CCC2CC3)cc1 (configuration not stated),inactive: -2.83%
19,CC1CCC(C(C)C)C(OP(=O)(Nc2ccccn2)c2ccccc2)C1 (configuration not stated),inactive: -19.7%
20,O=C(/C=C/c1ccccc1)OC1CN2CCC1CC2 (configuration not stated),inactive: -7.92%
21,CCCC1OP(=O)(Nc2ccccc2)OCC1CC (configuration not stated),inactive: -5.62%
22,O=P1(Nc2ncccn2)COc2ccccc2OC1,inactive: 0.7%
23,Cc1ccc(S(=O)(=O)N(CCCN)CCCc2c(C)nc(N)[nH]c2=O)cc1,inactive: -3.79%
24,NS(=O)(=O)c1cccc(NC(=O)COC(=O)C(O)(c2ccccc2)c2ccccc2)c1,inactive: 0.78%

row,SMILES,inhibition
1,O=P1(Nc2ccc(Br)cn2)COc2ccccc2OC1,inactive: 1.67%
2,Cc1ccc(OCC(=O)OC2CN3CCC2CC3)cc1 (configuration not stated),inactive: -11%
3,O=[As](O)(c1cccs1)c1cccs1,inactive: -2.72%
4,Nc1cccc([As](=O)(O)c2ccccc2)c1,inactive: 13.9%
5,CC1CCNP(=O)(N(CCCl)CCCl)O1 (configuration not stated),inactive: 2.37%
6,C/C=C1/CC(C)C(C)(O)C(=O)OCC2CCN3CCC(OC1=O)C23 (configuration not stated),active: 44.1%
7,O=C(O)C(O)c1ccc(N(CCCl)CCCl)cc1 (configuration not stated),inactive: -8.82%
8,CCOC(=O)Nc1ccc([As](=O)(O)O)c(O)c1,inactive: 3.02%
9,Cc1cc(SC(NC(=O)c2ccccc2)C(Cl)(Cl)Cl)nc(C(C)C)n1 (configuration not stated),inactive: 5.7%
10,COP(=O)(OC)N1CC1c1ccccc1 (configuration not stated),inactive: 6.84%
11,CCOC(=O)Nc1cccc([As](=O)(O)O)c1,inactive: 7.27%
12,O=[N+]([O-])c1ccc(Nc2ccc(Oc3ccc([N+](=O)[O-])cc3[N+](=O)[O-])cc2)c([N+](=O)[O-])c1,inactive: 7.38%
13,Cc1cc(SC(NC=O)C(Cl)(Cl)Cl)ncn1 (configuration not stated),inactive: -1.68%
14,O=P(Nc1ccccn1)(c1cccc2ccccc12)c1cccc2ccccc12,inactive: 1.03%
15,COP1(=S)c2c(C)nn(CCC#N)c2N=C(c2ccc(F)cc2)N1C (configuration not stated),inactive: 0.64%
16,COC(=O)C1(C)COP(=O)(N2CCCC2)OC1 (configuration not stated),inactive: -6.52%
17,O=C(COc1ccccc1)OC1CN2CCC1CC2 (configuration not stated),inactive: 13.8%
18,O=C(Nc1ccncc1[N+](=O)[O-])c1ccc([N+](=O)[O-])cc1[N+](=O)[O-],inactive: -3.75%
19,O=C(O)C(=O)c1ccc(N(CCCl)CCCl)cc1,inactive: -14.1%
20,CCOC(=O)c1ccc(NC(=O)C(C)(CCl)SC)cc1 (configuration not stated),inactive: 5.41%
21,O=C(OC1CN2CCC1CC2)c1cccc([N+](=O)[O-])c1 (configuration not stated),inactive: -0.52%
22,CSc1ccc(Nc2c([N+](=O)[O-])cc([N+](=O)[O-])cc2[N+](=O)[O-])cc1,inactive: -16.2%
23,CCC(C)N(CC(C)C)C(=S)SC(NC(C)=O)C(Cl)(Cl)Cl (configuration not stated),inactive: 6.08%
24,Cc1cc(=O)[nH]c(N[N+](=O)[O-])n1,inactive: -7.91%

row,SMILES,inhibition
1,Cc1c2c(nc3ccccc13)SC(C(Cl)Cl)C2 (configuration not stated),inactive: -7.79%
2,COc1ccc2nc(NP(=O)(c3ccccc3)c3ccccc3)sc2c1,inactive: -6.61%
3,COc1cc(I)ccc1[As](=O)(O)O,inactive: -4.26%
4,O=P1(N(CCCl)CCCl)Nc2ccccc2N1,inactive: 0.1%
5,O=P1(N(CCCl)CCCl)OCCCN1CCCl (configuration not stated),inactive: 6.36%
6,COc1ccc(N/C(=N/P(=O)(N2CCOCC2)N2CCOCC2)N2CCOCC2)cc1,inactive: 0.98%
7,O=[N+]([O-])c1cc(Oc2ccc([N+](=O)[O-])cc2C(F)(F)F)cc([N+](=O)[O-])c1,inactive: -12.4%
8,O=[As](O)(c1ccc(O)cc1)c1ccccc1O,inactive: -2.02%
9,C[As](=O)(O)c1cccc(C(=O)O)c1,inactive: -0.3%
10,O=[N+]([O-])c1ccc(-c2cc([N+](=O)[O-])c(O)c([N+](=O)[O-])c2)cc1,inactive: -6.54%
11,Cc1ccc2nc3c(c(C)c2c1)CC(C(Cl)Cl)S3 (configuration not stated),inactive: -23.3%
12,Cc1ccc(OP(=O)(Nc2ccc([N+](=O)[O-])cn2)Oc2ccc(C)cc2)cc1,inactive: -12%
13,[N-]=[N+]=NC1CCCCC1NC(=O)c1cc([N+](=O)[O-])cc([N+](=O)[O-])c1 (configuration not stated),inactive: 3.31%
14,CC(Cc1ccc(O)cc1)NCC(O)c1cc(O)cc(O)c1 (configuration not stated),inactive: -3.01%
15,CC(C)c1ccc(OP(=O)(Nc2ccccn2)Oc2ccccc2F)cc1 (configuration not stated),inactive: 6.46%
16,COC(=O)C1(C)COP(=O)(N2CCCCCC2)OC1 (configuration not stated),inactive: -8.89%
17,ClCCSc1nnc(-c2cccnc2)o1,inactive: 2.07%
18,CCN(CC)C(=S)SC(NC=O)C(Cl)(Cl)Cl (configuration not stated),inactive: 11%
19,O=C(OC1CN2CCC1CC2)c1cccc2[nH]cnc12 (configuration not stated),inactive: -6.28%
20,CC(C)NC(=O)NP(=O)(Oc1ccccc1)Oc1ccccc1,inactive: -4.01%
21,O=[N+]([O-])c1cc([N+](=O)[O-])c(-c2ccn[nH]2)s1,inactive: -5.88%

# Reference: PubChem BioAssay AID624125 (The Scripps Research Institute Molecular Screening Center, 2012)
